# In publication PMC7179958, “Prediction of Clinical Transporter‐Mediated Drug–Drug Interactions via Comeasurement of Pitavastatin and Eltrombopag in Human Hepatocyte Models” (CPT: Pharmacometrics & Systems Pharmacology, 2020):
# System: human hepatocytes
# Assay: Uptake of pitavastatin and eltrombopag in cryopreserved human hepatocytes (oil spin method), comeasurement, micro‐rate constant mechanistic model
# Format: in vitro ADME
# Description: Human hepatocytes were obtained from BioIVT (Brussels, Belgium; lot number: LYB; 10 donor LiverPool (8 Caucasians, 1 African American, and 1 Hispanic) and thawed according to supplier guidelines in Leibovitz L15 medium. Hepatocytes were kept on ice prior to use and were used within 3 hours of defrosting.
# Hepatocytes (viability 84–87%) were preincubated in Leibovitz L15 medium at 1.5 × 10^6 cells for 15 minutes at 37 °C with either 0.1% DMSO or 45 nmol/mL eltrombopag. Incubations were started by the addition of pitavastatin (0.3–100 nmol/mL, 1 × 10^6 cells, 0.35% DMSO, 30 nmol/mL eltrombopag final), and 100 µL samples taken at 0.25–30 minutes. Cells were separated using an oil spin method similar to the literature. ^11 , ^17 After separation, the tubes were frozen on dry ice and the bottom layer was cut off. Pitavastatin and eltrombopag were extracted in a stop solution prior to ultra‐performance liquid chromatography–high‐resolution mass spectrometry analysis (see the Supplemental Material for full experimental and sample extraction methods).
# The bottom layer concentrations of pitavastatin and eltrombopag were converted to a cellular concentration using a cellular volume (V cell) of 3 µL/1 × 10^6 human hepatocytes: ^18 (1) cellnmol/mL=Bottom layer×15.3μL/Vcell/100 where V cell /1 × 10^5 cells was 0.3 µL, and the volume of the bottom layer of cesium chloride was 15 µL. A dilution factor of 100 was used to scale from pmol/mL/1 × 10^5 cells to nmol/mL/1 × 10^6 cells.
# The final chosen mechanistic model (model 1 with the comeasurement of pitavastatin and eltrombopag; Table 1 ) was based on the outcome of the structural identifiability analysis and goodness‐of‐fit statistics (Bayesian information criterion, and the weighted Bayesian information criterion, ^21 and the sum of the relative mean square root error (percentage RMSRE); see Supplemental Material ). Model 1 was described using a set of ODEs representing the following: the amount of pitavastatin (X = substrate (S) or pitavastatin (P)) and eltrombopag (X = inhibitor (I) or eltrombopag (E)) in the medium (X 1), the amount bound to transporter (X 2), and the intracellular amount (X 3). Passive rate constants for movement into and out of the cell (k f.X and k bX, respectively) as well as uptake transporter‐mediated rate constants for association to the transporter (k aX) and dissociation (k dX) and translocation (k tX) from the transporter into the medium and cell, respectively. Metabolism of pitavastatin in the cell was through an elimination rate constant (k e). The sets of ODEs for all the models (models 1–4; Table 1 ) tested for structural identifiability and used for parameter estimation are included in the Supplemental Material .
# Parameter estimation was conducted within Monolix 2018 R2 (Lixoft, Antony, France) for each concentration and experiment as an individual data set, where to ensure positivity, a log‐normal distribution was assumed for each parameter, with a proportional residual error model for the observations. Because of the large number of parameters to be estimated in the combined pitavastatin and eltrombopag mechanistic model, the initial estimates for pitavastatin and eltrombopag each were obtained for the micro‐rate constant models (no macro‐rate constant estimates could be obtained for eltrombopag alone for transporter‐mediated uptake).
# Hepatocyte Incubations. 0.4 mL of hepatocytes was diluted 1:1 with Leibovitz either containing DMSO blank (0.1 % for pitavastatin or 0.25 % for eltrombopag alone) or eltrombopag at 90 nmol/mL and pre-incubated at 1.5x10^6 cells/mL for 15 min at 37 °C in 7 mL glass scintillation vials (PerkinElmer, Vasby, Sweden) in a shaking water bath (Grant Instruments, Cambridge, UK). Pitavastatin was dissolved and serially diluted in DMSO to give 0.12, 0.4, 1.2, 4, 12 and 40 µmol/mL, and then diluted 400-fold into 37 °C Leibovitz L15 medium. […]
compound,measurement,setting,value
"O=C(O)C[C@H](O)C[C@H](O)/C=C/c1c(C2CC2)nc2ccccc2c1-c1ccc(F)cc1 [pitavastatin, pitavastatin calcium]",DV (pitavastatin uptake into hepatocytes),"ID 11, AMT 10, TIME 25, DVID 1",101.31
same,DV (pitavastatin uptake into hepatocytes),"ID 11, AMT 10, TIME 45, DVID 1",92.94
same,DV (pitavastatin uptake into hepatocytes),"ID 12, AMT 10, TIME 15.25, DVID 1",10.24
same,DV (pitavastatin uptake into hepatocytes),"ID 12, AMT 10, TIME 15.5, DVID 1",15.8
same,DV (pitavastatin uptake into hepatocytes),"ID 12, AMT 10, TIME 16, DVID 1",23.52
same,DV (pitavastatin uptake into hepatocytes),"ID 12, AMT 10, TIME 17, DVID 1",33.88
same,DV (pitavastatin uptake into hepatocytes),"ID 12, AMT 10, TIME 20, DVID 1",45.66
same,DV (pitavastatin uptake into hepatocytes),"ID 12, AMT 10, TIME 25, DVID 1",55.04
same,DV (pitavastatin uptake into hepatocytes),"ID 12, AMT 10, TIME 45, DVID 1",58.31
same,DV (pitavastatin uptake into hepatocytes),"ID 13, AMT 30, TIME 15.25, DVID 1",27.54
same,DV (pitavastatin uptake into hepatocytes),"ID 13, AMT 30, TIME 15.5, DVID 1",39.76
same,DV (pitavastatin uptake into hepatocytes),"ID 13, AMT 30, TIME 16, DVID 1",51.68
same,DV (pitavastatin uptake into hepatocytes),"ID 13, AMT 30, TIME 17, DVID 1",70.77
same,DV (pitavastatin uptake into hepatocytes),"ID 13, AMT 30, TIME 20, DVID 1",94.15
same,DV (pitavastatin uptake into hepatocytes),"ID 13, AMT 30, TIME 25, DVID 1",96.56
same,DV (pitavastatin uptake into hepatocytes),"ID 13, AMT 30, TIME 45, DVID 1",134.16
same,DV (pitavastatin uptake into hepatocytes),"ID 14, AMT 30, TIME 15.25, DVID 1",55.36
same,DV (pitavastatin uptake into hepatocytes),"ID 14, AMT 30, TIME 15.5, DVID 1",78.62
same,DV (pitavastatin uptake into hepatocytes),"ID 14, AMT 30, TIME 16, DVID 1",112.65
same,DV (pitavastatin uptake into hepatocytes),"ID 14, AMT 30, TIME 17, DVID 1",171.8
same,DV (pitavastatin uptake into hepatocytes),"ID 14, AMT 30, TIME 20, DVID 1",206.15
same,DV (pitavastatin uptake into hepatocytes),"ID 14, AMT 30, TIME 25, DVID 1",229.26
same,DV (pitavastatin uptake into hepatocytes),"ID 14, AMT 30, TIME 45, DVID 1",248.83
same,DV (pitavastatin uptake into hepatocytes),"ID 15, AMT 30, TIME 15.25, DVID 1",30.02
same,DV (pitavastatin uptake into hepatocytes),"ID 15, AMT 30, TIME 15.5, DVID 1",44.72
same,DV (pitavastatin uptake into hepatocytes),"ID 15, AMT 30, TIME 16, DVID 1",58.25
same,DV (pitavastatin uptake into hepatocytes),"ID 15, AMT 30, TIME 17, DVID 1",83.69
same,DV (pitavastatin uptake into hepatocytes),"ID 15, AMT 30, TIME 20, DVID 1",107.2
same,DV (pitavastatin uptake into hepatocytes),"ID 15, AMT 30, TIME 25, DVID 1",109.61
same,DV (pitavastatin uptake into hepatocytes),"ID 15, AMT 30, TIME 45, DVID 1",117.64
same,DV (pitavastatin uptake into hepatocytes),"ID 16, AMT 100, TIME 15.25, DVID 1",69.18
same,DV (pitavastatin uptake into hepatocytes),"ID 16, AMT 100, TIME 15.5, DVID 1",107.44
same,DV (pitavastatin uptake into hepatocytes),"ID 16, AMT 100, TIME 16, DVID 1",136
same,DV (pitavastatin uptake into hepatocytes),"ID 16, AMT 100, TIME 17, DVID 1",165.82
same,DV (pitavastatin uptake into hepatocytes),"ID 16, AMT 100, TIME 20, DVID 1",300.74
same,DV (pitavastatin uptake into hepatocytes),"ID 16, AMT 100, TIME 25, DVID 1",284.22
same,DV (pitavastatin uptake into hepatocytes),"ID 16, AMT 100, TIME 45, DVID 1",366.49
same,DV (pitavastatin uptake into hepatocytes),"ID 18, AMT 100, TIME 15.25, DVID 1",59.21
same,DV (pitavastatin uptake into hepatocytes),"ID 18, AMT 100, TIME 15.5, DVID 1",73.16
same,DV (pitavastatin uptake into hepatocytes),"ID 18, AMT 100, TIME 16, DVID 1",101.75
same,DV (pitavastatin uptake into hepatocytes),"ID 18, AMT 100, TIME 17, DVID 1",141.38
same,DV (pitavastatin uptake into hepatocytes),"ID 18, AMT 100, TIME 20, DVID 1",182.62
same,DV (pitavastatin uptake into hepatocytes),"ID 18, AMT 100, TIME 25, DVID 1",214.66
same,DV (pitavastatin uptake into hepatocytes),"ID 18, AMT 100, TIME 45, DVID 1",221.36
same,DV (pitavastatin uptake into hepatocytes),"ID 19, AMT 0.3, TIME 15.25, DVID 2",0.25
same,DV (pitavastatin uptake into hepatocytes),"ID 19, AMT 0.3, TIME 15.5, DVID 2",0.45
same,DV (pitavastatin uptake into hepatocytes),"ID 19, AMT 0.3, TIME 16, DVID 2",0.51
same,DV (pitavastatin uptake into hepatocytes),"ID 19, AMT 0.3, TIME 17, DVID 2",0.63
same,DV (pitavastatin uptake into hepatocytes),"ID 19, AMT 0.3, TIME 20, DVID 2",0.88
same,DV (pitavastatin uptake into hepatocytes),"ID 19, AMT 0.3, TIME 25, DVID 2",1.21
same,DV (pitavastatin uptake into hepatocytes),"ID 19, AMT 0.3, TIME 45, DVID 2",1.12
same,DV (pitavastatin uptake into hepatocytes),"ID 20, AMT 0.3, TIME 15.25, DVID 2",0.79
same,DV (pitavastatin uptake into hepatocytes),"ID 20, AMT 0.3, TIME 15.5, DVID 2",1.03
same,DV (pitavastatin uptake into hepatocytes),"ID 20, AMT 0.3, TIME 16, DVID 2",1.34
same,DV (pitavastatin uptake into hepatocytes),"ID 20, AMT 0.3, TIME 17, DVID 2",1.85
same,DV (pitavastatin uptake into hepatocytes),"ID 20, AMT 0.3, TIME 20, DVID 2",2.31
same,DV (pitavastatin uptake into hepatocytes),"ID 20, AMT 0.3, TIME 25, DVID 2",2.46
same,DV (pitavastatin uptake into hepatocytes),"ID 20, AMT 0.3, TIME 45, DVID 2",2.42
same,DV (pitavastatin uptake into hepatocytes),"ID 21, AMT 0.3, TIME 15.25, DVID 2",0.35
same,DV (pitavastatin uptake into hepatocytes),"ID 21, AMT 0.3, TIME 15.5, DVID 2",0.41
same,DV (pitavastatin uptake into hepatocytes),"ID 21, AMT 0.3, TIME 16, DVID 2",0.5
same,DV (pitavastatin uptake into hepatocytes),"ID 21, AMT 0.3, TIME 17, DVID 2",0.77
same,DV (pitavastatin uptake into hepatocytes),"ID 21, AMT 0.3, TIME 20, DVID 2",1.03
same,DV (pitavastatin uptake into hepatocytes),"ID 21, AMT 0.3, TIME 25, DVID 2",1.04
same,DV (pitavastatin uptake into hepatocytes),"ID 21, AMT 0.3, TIME 45, DVID 2",1.11
same,DV (pitavastatin uptake into hepatocytes),"ID 22, AMT 1, TIME 15.25, DVID 2",1.2
same,DV (pitavastatin uptake into hepatocytes),"ID 22, AMT 1, TIME 15.5, DVID 2",1.3
same,DV (pitavastatin uptake into hepatocytes),"ID 22, AMT 1, TIME 16, DVID 2",1.56
same,DV (pitavastatin uptake into hepatocytes),"ID 22, AMT 1, TIME 17, DVID 2",2.36
same,DV (pitavastatin uptake into hepatocytes),"ID 22, AMT 1, TIME 20, DVID 2",2.55
same,DV (pitavastatin uptake into hepatocytes),"ID 22, AMT 1, TIME 25, DVID 2",3.55
same,DV (pitavastatin uptake into hepatocytes),"ID 22, AMT 1, TIME 45, DVID 2",2.85
same,DV (pitavastatin uptake into hepatocytes),"ID 23, AMT 1, TIME 15.25, DVID 2",2.8
same,DV (pitavastatin uptake into hepatocytes),"ID 23, AMT 1, TIME 15.5, DVID 2",3.25
same,DV (pitavastatin uptake into hepatocytes),"ID 23, AMT 1, TIME 16, DVID 2",4.14
same,DV (pitavastatin uptake into hepatocytes),"ID 23, AMT 1, TIME 17, DVID 2",4.35
